Data taken from patent publication US11524966B1 (Valo Early Discovery, Inc., priority 2017, dated 2022).

By UniProt entry, the sequences of proteins in these tests, tags left out.
UniProt Q9UHP3, whole entry: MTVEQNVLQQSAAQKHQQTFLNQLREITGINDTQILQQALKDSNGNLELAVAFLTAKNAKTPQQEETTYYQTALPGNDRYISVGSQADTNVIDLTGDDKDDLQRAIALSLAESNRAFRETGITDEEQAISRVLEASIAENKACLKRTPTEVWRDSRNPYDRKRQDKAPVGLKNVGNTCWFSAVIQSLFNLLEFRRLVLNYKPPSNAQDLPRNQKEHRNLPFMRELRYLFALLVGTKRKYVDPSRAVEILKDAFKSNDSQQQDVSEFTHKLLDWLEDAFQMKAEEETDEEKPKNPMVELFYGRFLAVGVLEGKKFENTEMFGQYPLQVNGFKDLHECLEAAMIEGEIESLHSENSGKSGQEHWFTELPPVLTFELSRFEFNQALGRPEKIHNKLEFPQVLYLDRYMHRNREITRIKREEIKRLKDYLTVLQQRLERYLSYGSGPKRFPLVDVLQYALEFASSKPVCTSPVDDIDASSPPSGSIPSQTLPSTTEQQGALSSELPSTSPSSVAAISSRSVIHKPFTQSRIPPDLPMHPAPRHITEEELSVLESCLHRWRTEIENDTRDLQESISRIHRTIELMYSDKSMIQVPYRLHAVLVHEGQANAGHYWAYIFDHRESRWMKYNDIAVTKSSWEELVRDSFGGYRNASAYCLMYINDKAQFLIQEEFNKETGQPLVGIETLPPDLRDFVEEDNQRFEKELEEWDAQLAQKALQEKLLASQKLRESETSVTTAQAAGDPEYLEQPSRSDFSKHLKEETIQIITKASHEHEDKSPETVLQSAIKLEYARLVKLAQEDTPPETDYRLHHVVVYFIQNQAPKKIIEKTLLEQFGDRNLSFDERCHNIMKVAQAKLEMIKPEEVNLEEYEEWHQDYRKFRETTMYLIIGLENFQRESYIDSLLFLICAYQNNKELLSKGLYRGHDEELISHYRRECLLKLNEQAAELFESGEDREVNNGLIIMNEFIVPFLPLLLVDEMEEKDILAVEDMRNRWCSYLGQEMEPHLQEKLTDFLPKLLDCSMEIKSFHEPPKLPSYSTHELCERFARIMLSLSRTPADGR
UniProt Q96RU2, whole entry: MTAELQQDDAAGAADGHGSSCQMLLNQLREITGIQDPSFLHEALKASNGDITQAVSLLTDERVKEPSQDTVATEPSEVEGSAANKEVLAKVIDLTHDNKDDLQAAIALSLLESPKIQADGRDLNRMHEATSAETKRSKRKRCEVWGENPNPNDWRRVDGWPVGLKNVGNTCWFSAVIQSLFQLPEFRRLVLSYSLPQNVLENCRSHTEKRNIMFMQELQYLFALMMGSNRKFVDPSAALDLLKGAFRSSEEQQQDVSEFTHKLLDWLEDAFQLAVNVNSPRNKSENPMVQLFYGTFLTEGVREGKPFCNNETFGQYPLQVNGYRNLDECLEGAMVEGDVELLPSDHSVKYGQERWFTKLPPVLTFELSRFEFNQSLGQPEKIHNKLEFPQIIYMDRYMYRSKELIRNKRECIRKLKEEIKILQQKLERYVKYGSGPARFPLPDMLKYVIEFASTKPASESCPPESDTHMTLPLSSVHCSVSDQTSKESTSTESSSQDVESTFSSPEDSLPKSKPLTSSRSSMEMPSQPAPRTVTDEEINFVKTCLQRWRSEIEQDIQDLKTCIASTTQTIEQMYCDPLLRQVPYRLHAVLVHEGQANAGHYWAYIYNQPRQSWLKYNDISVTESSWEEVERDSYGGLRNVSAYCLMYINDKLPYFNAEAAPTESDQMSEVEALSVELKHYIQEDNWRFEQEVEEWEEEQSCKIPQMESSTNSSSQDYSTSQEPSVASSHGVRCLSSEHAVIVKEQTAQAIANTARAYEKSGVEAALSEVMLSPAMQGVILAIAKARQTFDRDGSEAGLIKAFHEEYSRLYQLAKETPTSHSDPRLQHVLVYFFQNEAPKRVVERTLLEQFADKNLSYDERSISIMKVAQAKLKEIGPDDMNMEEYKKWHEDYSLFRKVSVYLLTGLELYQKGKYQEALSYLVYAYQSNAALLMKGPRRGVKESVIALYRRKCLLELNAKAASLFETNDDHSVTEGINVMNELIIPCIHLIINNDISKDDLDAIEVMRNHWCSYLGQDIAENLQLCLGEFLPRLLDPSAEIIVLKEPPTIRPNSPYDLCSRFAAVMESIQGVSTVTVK

Legend:
[1] = target: USP25 (USP25-His6, Boston Biochem E-546) (Homo sapiens, UniProt Q9UHP3); experiment: Ubiquitin-Rhodamine 110 Assay for USP25 Activity, Example A-2; format: biochemical; settings: read-out: USP25 A-2 IC50 range
[2] = target: USP28 (His-tagged USP28-FL-mammalian) (Homo sapiens, UniProt Q96RU2); experiment: Ubiquitin-Rhodamine 110 Assay for USP28 Activity, Example A-1(a); settings: read-out: USP28 A-1(a) IC50 range

Structure (SMILES)	IC50 [1] [nM]	IC50 [2] [nM]
[2H]C1([2H])c2c(F)cc(N3CCNCC3)cc2OC[C@@H]1NC(=O)c1sc2nc(C)ccc2c1N	200 to 2000	1 to 50
[2H]C1([2H])c2c(F)cc(N3CCNCC3)cc2OC[C@H]1NC(=O)c1sc2nc(C)ccc2c1N (single isomer, unassigned)	> 2000	200 to 2000
